System: hiPSCs
Experiment: Cardiac differentiation of hiPSCs in CDM3, optimisation of media and small molecules (TNNT2 flow cytometry)
Type: cell-based
Conditions: for cardiomyocyte yield: differentiation without rHA / removal of recombinant albumin in CDM3
Method: Cardiac differentiation of hiPSCs. hiPSCs and hESCs (>p20) were split at 1:10 or 1:12 ratios using EDTA as above and grown for 4 days at which time they reached ˜85% confluence. Media was changed to CDM3, consisting of RPMI 1640 (11875, Life Technologies), 495 μg/mL Oryza sativa-derived recombinant human albumin (A0237, Sigma-Aldrich, 75 mg/mL stock solution in dH2O, stored at −20° C.), 213 μg/mL L-ascorbic acid 2-phosphate (Sigma-Aldrich, 64 mg/mL stock solution in dH2O, stored at −20° C.). Media was changed every other day (48 h). For d0-d2, media was supplemented with 6 μM CHIR99021 (LC Laboratories, Woburn, Mass., USA). On d2, media was change to CDM3 supplemented with […] Wnt-C59 (Cellagentech, San Diego, Calif., USA). Media was changed on d4 and every other day for CDM3. Contracting cells were noted from d7.
Wnt inhibitors assessed were IWP-2, IWR-1 (Sigma-Aldrich), XAV-939, ICG-001 (Selleck Chemicals), IWP-4 (Stemgent, Cambridge, Mass., USA), and Wnt-C59 (Cellagentech). GSK3B inhibitors assessed were CHIR99021 (LC Laboratories), BIO, TWS119 (Selleck Chemicals), 1-azenkenpaullone, TDZD-8, ARA014418, and 3F8 (all Sigma-Aldrich). Inhibitors used for pathway analysis were PD173074, SB203580, LDN193189, SB431542 (all Selleck Chemicals), SU5402, Dorsomorphin, A83-01 (Tocris, Bristol, UK), ALK5 inhibitor (Stemgent), and ITD-1 (Xcessbio, San Diego, Calif., USA). All small molecules were re-suspended to 10 mM in dimethyl sulfoxide (DMSO).
Flow cytometry. For optimization of cardiac differentiation conditions, cells were cultured in 12-well plates. For analysis of cardiomyocyte differentiation efficacy and subtype specification, expression of TNNT2, MLC2A and MLC2V was analyzed by flow cytometry. At d14-15 of differentiation, the entire well was dissociated with TrypLE Express for 10 min at 37° C. and transferred to flow cytometry tubes (BD Biosciences). Cells were then fixed with 1% PFA for 15 min, permeabilized with 90% methanol for 15 min and stained using 1:200 mouse monoclonal IgG1 TNNT2 (13-11, Thermo Scientific), 1:400 mouse monoclonal IgG2b MLC2A (MYL7, Synaptic Systems) and 1:200 rabbit polyclonal IgG MLC2V (MYL2, ProteinTech) for 45 min at RT. Secondary staining was performed with 1:1000 Alexa Fluor 488 goat anti-mouse IgG1, 1:1000 Alexa Fluor 488 goat anti-rabbit IgG (H+L), 1:1000 Alexa Fluor 647 goat anti-mouse IgG2b and 1:1000 Alexa Fluor 647 goat anti-rabbit IgG (H+L) secondary antibodies for 20 min. […] Cells were analyzed using a FACSAria II (BD Biosciences) with a […] and FACSDiva software. Data were analyzed using FlowJo 8.7 (Tree Star).

With “rHA: recombinant human albumin, Oryza sativa-derived” the “quality of contracting monolayers (qualitative)” value (500 μg/mL rHA) was “produced the most suitable contracting monolayers”, the “quality of contracting monolayers (qualitative)” value (750 μg/mL rHA and above) was “more likely to have more three-dimensional structures” and the cardiomyocyte yield was “drastically reduced”. The cardiomyocyte yield (listed as recombinant albumin) was “reduction in cardiomyocyte yield” and the “TNNT2+ cells” value (differentiation without rHA, entirely protein-free medium) was about 65%.
